The record followed here is PubChem BioAssay AID624377 (The Scripps Research Institute Molecular Screening Center, 2012).

Sequences of proteins named here, by UniProt entry; tags and fusion partners are left off. Residues count along the entry.
UniProt Q9ULH1, 325-724 limits assumed: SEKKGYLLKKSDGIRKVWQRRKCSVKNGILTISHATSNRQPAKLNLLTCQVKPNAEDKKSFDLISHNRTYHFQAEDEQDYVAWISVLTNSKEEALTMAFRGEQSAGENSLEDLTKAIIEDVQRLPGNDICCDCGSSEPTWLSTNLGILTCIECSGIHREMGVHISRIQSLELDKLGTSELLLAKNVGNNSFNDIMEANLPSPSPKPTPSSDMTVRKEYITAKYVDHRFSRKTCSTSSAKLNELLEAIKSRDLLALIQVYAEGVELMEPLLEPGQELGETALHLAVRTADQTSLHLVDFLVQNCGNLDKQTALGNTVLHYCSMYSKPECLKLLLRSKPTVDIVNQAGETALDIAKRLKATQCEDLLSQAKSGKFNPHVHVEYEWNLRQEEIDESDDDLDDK

By inhibition is commonly meant the change of the read-out against control, counted positive when it falls.

This is a selection; strong and weak results do not stand in their true shares. Some salts or complexes appear as unconnected parts, following the source record. Active and inactive are the calls of the source. Rule as the data show it: active = inhibition above about 25%; inactive = the rest.

In this assay the target is Arf-GAP with SH3 domain, ANK repeat and PH domain-containing protein 1 (Homo sapiens) (UniProt Q9ULH1). Briefly: blockers of ASAP1-stimulated ARF1 GTP hydrolysis – biochemical, fluorescence polarization, primary screen (AID 624377).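 Also: 0% = vehicle with enzyme and substrate and 100% = no enzyme.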 The conditions noted are these: GDP FP detection, at 16.5 µM, active compounds read high. (Polarisation of emitted light reports the rotation of a fluorescent probe.)
For the compound `CCOC(=O)c1ccc(NP(C)(=O)Oc2cc(C)cc(C)c2)cc1` (centres undefined), the inhibition was inactive: 6.74%.

Consider `Cc1cc(C)cc(OP(C)(=O)Nc2ccc(C)cc2C)c1` (centres undefined), for which the inhibition was inactive: 4%.

As to `COc1ccccc1OP(C)(=O)Nc1cccc(Br)c1` (centres undefined), the inhibition was inactive: -7.08%.

In the case of `Cc1ccc(C)c(NP(C)(=O)Oc2ccccc2)c1` (centres undefined), the inhibition was inactive: -9.55%.

On to `CP(=O)(Nc1cccc(Br)c1)Oc1ccccc1` (centres undefined), for which the inhibition was inactive: -6.11%.

As to `Cc1cc(C)cc(OP(C)(=O)Nc2ccccn2)c1` (centres undefined), the inhibition was inactive: 2.54%.

For the compound `O=C(O)c1cccc(Nc2c([N+](=O)[O-])cc([N+](=O)[O-])cc2[N+](=O)[O-])c1`, the inhibition is inactive: -4.66%.

As to `CC1=NCCc2c1[nH]c1ccccc21.O=[N+]([O-])c1cc([N+](=O)[O-])c(O)c([N+](=O)[O-])c1`, the inhibition is inactive: -6.01%.

As to `CCOC(=O)C(CC)C1=NC(C)(C)Cc2ccccc21.O=[N+]([O-])c1cc([N+](=O)[O-])c(O)c([N+](=O)[O-])c1` (centres undefined), the inhibition is inactive: 4.74%.

Take `O=[N+]([O-])c1cc([N+](=O)[O-])c(Nc2nnnn2CCO)c([N+](=O)[O-])c1`: the inhibition is inactive: -1.02%.

Take `COc1ccc(-c2ccccn2)cc1.O=[N+]([O-])c1cc([N+](=O)[O-])c(O)c([N+](=O)[O-])c1`: the inhibition is inactive: -3.64%.

`CP(=O)(Nc1ccc(SC(F)(F)F)cc1)Oc1ccccc1` (centres undefined): the inhibition was inactive: 16.9%.

With `CCCOc1ccc(NP(C)(=O)Oc2ccc(Cl)cc2)cc1` (centres undefined), the inhibition was inactive: 7.57%.

For the compound `CN1CCCCC1COC(=O)C1(O)c2ccccc2CCc2ccccc21` (centres undefined), the inhibition is inactive: -6.46%.

Consider `COc1ccccc1OP(C)(=O)Nc1c(C)cccc1C` (centres undefined), for which the inhibition was inactive: -7.81%.

Consider `CN(Cc1cccnc1)C(=O)COc1ccc(Cl)c(Cl)c1.O=[N+]([O-])c1cc([N+](=O)[O-])c(O)c([N+](=O)[O-])c1`, for which the inhibition is inactive: 11.4%.

For `O=[N+]([O-])c1cc([N+](=O)[O-])c(-n2nnc3ccccc32)c([N+](=O)[O-])c1`, the inhibition is inactive: 17.2%.

For the compound `Cc1nc2ccc3ccccc3c2s1.O=[N+]([O-])c1cc([N+](=O)[O-])c(O)c([N+](=O)[O-])c1`, the inhibition was inactive: -1.68%.

In the case of `O=[N+]([O-])c1cc([N+](=O)[O-])c(-c2cnn(-c3ccccc3)c2)c([N+](=O)[O-])c1`, the inhibition is inactive: 9.72%.

In the case of `Cc1cc(C)cc(OP(C)(=O)Nc2ccc(SC(F)(F)F)cc2)c1` (centres undefined), the inhibition is inactive: 8.08%.

Regarding `CCc1ccc(OP(C)(=O)N2CCN(c3ccc([N+](=O)[O-])cc3)CC2)cc1` (centres undefined), the inhibition is inactive: 7.79%.

For `CP(=O)(NC(=O)Nc1ccccc1)Oc1ccccc1` (centres undefined), the inhibition is inactive: 10.4%.

Regarding `CP(=O)(Oc1ccccc1)OC(c1ccccc1)C(F)(F)F` (centres undefined), the inhibition was inactive: -14.6%.

With `CP(=O)(Nc1ccc(SC(F)(F)F)cc1)Oc1ccc(Cl)cc1` (centres undefined), the inhibition was inactive: -7.23%.

For the compound `Cc1cccc(C)c1OP(C)(=O)Nc1ccc(SC(F)(F)F)cc1` (centres undefined), the inhibition is inactive: -8.53%.

For the compound `CP(=O)(Nc1ccccn1)Oc1ccc(Cl)cc1` (centres undefined), the inhibition is inactive: 15.1%.

As for `O=[N+]([O-])c1cc([N+](=O)[O-])c(O)c([N+](=O)[O-])c1.c1ccc(Oc2ccncc2)cc1`, the inhibition was inactive: -5.85%.

Regarding `CCOC(=O)c1ccc(NP(C)(=O)Oc2ccc(OC)cc2)cc1` (centres undefined), the inhibition was inactive: -4.41%.

`CCOP(C)(=S)SCC(=O)NC(C)C(=O)O` (centres undefined): the inhibition is inactive: -0.27%.

Take `CP(=O)(Nc1ccccc1Br)Oc1ccccc1` (centres undefined): the inhibition is inactive: 1.31%.

`COc1ccccc1OP(C)(=O)Nc1ccccc1` (centres undefined): the inhibition was inactive: 8.49%.

Take `CP(=S)(Nn1cnnc1)Oc1ccccc1` (centres undefined): the inhibition is inactive: -0.26%.

Regarding `O=[N+]([O-])c1ccc2c(c1)C=Nc1ccccc1O2`, the inhibition is inactive: -3.01%.

As for `Cc1cccc(C)c1OP(C)(N)=O` (centres undefined), the inhibition is inactive: 0.53%.

For `CC(C)(C)c1ccc(OP(C)(=O)Nc2ccc(SC(F)(F)F)cc2)cc1` (centres undefined), the inhibition is inactive: 6.36%.

Consider `O=[N+]([O-])c1cc([N+](=O)[O-])c(Nc2cccnc2)c([N+](=O)[O-])c1`, for which the inhibition was inactive: 9.38%.

As to `Cc1cc(C)cc(OP(C)(N)=O)c1` (centres undefined), the inhibition is inactive: -3.91%.

As for `COc1ccc(OP(C)(=O)Nc2cccc(F)c2)cc1` (centres undefined), the inhibition was inactive: 9.88%.

For `COc1ccccc1OP(C)(=O)Nc1cc(Cl)ccc1C` (centres undefined), the inhibition was inactive: 11.9%.

`Cc1ccc(NP(C)(=O)Oc2ccccc2)c(C)c1` (centres undefined): the inhibition is inactive: 7.88%.

For `COc1ccccc1OP(C)(=O)Nc1ccc(C)cc1` (centres undefined), the inhibition is inactive: -2.51%.

As for `CCOC(=O)c1ccc(NP(C)(=O)Oc2ccccc2)cc1` (centres undefined), the inhibition is inactive: 0.04%.

On to `CCN(CC)CCCOC(=O)C(O)(c1ccccc1)c1ccccc1`, for which the inhibition is inactive: -2.41%.

For the compound `COc1ccccc1-c1ccccn1.O=[N+]([O-])c1cc([N+](=O)[O-])c(O)c([N+](=O)[O-])c1`, the inhibition was inactive: -4.97%.

As for `COc1ccc(OP(C)(=O)Nc2ccccn2)cc1` (centres undefined), the inhibition was inactive: -4.26%.

On to `CN(C)CCOC(=O)C(O)(c1ccccc1)C1CCCC1` (centres undefined), for which the inhibition was inactive: -4.2%.

`COc1ccccc1OP(C)(=O)Nc1ccc(Br)cc1` (centres undefined): the inhibition is inactive: -3.08%.

With `COc1ccccc1OP(C)(=O)Nc1ccc(C)cc1C` (centres undefined), the inhibition is inactive: -9.45%.

`CP(=O)(Nc1ccccn1)Oc1ccccc1` (centres undefined): the inhibition was inactive: 9.24%.

Regarding `CCc1ccc(OP(C)(=O)O)cc1`, the inhibition is inactive: -7.07%.

In the case of `O=[N+]([O-])c1cc([N+](=O)[O-])c(Nc2ccccn2)c([N+](=O)[O-])c1`, the inhibition is inactive: 2.51%.

On to `Cc1c(NP(C)(=O)Oc2ccc(C(C)C)cc2)c(=O)n(-c2ccccc2)n1C` (centres undefined), for which the inhibition is inactive: -2.73%.

`COc1ccccc1OP(C)(=O)Nc1ccc(C)c(C)c1` (centres undefined): the inhibition is inactive: -3.62%.

On to `COc1ccc(OP(C)(=O)Nc2ccccc2Br)cc1` (centres undefined), for which the inhibition is inactive: 2.96%.

With `Cc1cc(C)cc(OP(C)(=O)Nc2cccc(C(F)(F)F)c2)c1` (centres undefined), the inhibition was inactive: 4.57%.

`O=C1C(O)=C([N+](=O)[O-])C(=O)C(O)=C1[N+](=O)[O-]`: the inhibition is inactive: -11.4%.

As to `CP(=O)(OCCOc1ccccc1)OCCOc1ccccc1`, the inhibition is inactive: -3.06%.

With `CP(=O)(Nc1ccc(Cl)cc1Cl)Oc1ccccc1` (centres undefined), the inhibition was inactive: -2.67%.

Take `CCCCCCCCCCCCCCCC1C[N+](C)(C)CCOP(C)(=O)O1` (centres undefined): the inhibition is inactive: -13.7%.

In the case of `CCOC(=O)c1ccc(NP(C)(=O)Oc2ccc(Cl)cc2)cc1` (centres undefined), the inhibition is inactive: -11.4%.

As to `CP(=O)(OC12CC3CC(CC(C3)C1)C2)OC12CC3CC(CC(C3)C1)C2`, the inhibition was inactive: -9.92%.

Consider `Nc1ccc2c(ccc3cccnc32)n1.O=[N+]([O-])c1cc([N+](=O)[O-])c(O)c([N+](=O)[O-])c1`, for which the inhibition was inactive: -6.35%.

As for `O=C(OCCCN1CCCC1)C(O)(c1ccccc1)C1CCCCC1` (centres undefined), the inhibition is inactive: 4.37%.

With `COc1ccccc1OP(C)(=O)Nc1c(C)n(C)n(-c2ccccc2)c1=O` (centres undefined), the inhibition is inactive: 1.93%.

Consider `CCc1ccc(OP(C)(=O)Nc2cccnc2)cc1` (centres undefined), for which the inhibition was inactive: -3.92%.

For the compound `CP(=O)(Oc1ccccc1)N1CCOC1=O` (centres undefined), the inhibition was inactive: -10.5%.

For the compound `COc1ccc(OP(C)(=O)Nc2ccc(Br)cc2)cc1` (centres undefined), the inhibition was inactive: -5.41%.

Turning to `CCN(CC)CC(O)COC(=O)C(O)(c1ccccc1)C1CCCCC1` (centres undefined), the inhibition is inactive: 5.64%.

For the compound `CN(C)C(=O)c1c([N+](=O)[O-])cc([N+](=O)[O-])cc1[N+](=O)[O-]`, the inhibition is inactive: 12.5%.

Turning to `CC(C)(C)c1ccc(OP(C)(=O)O)cc1`, the inhibition was inactive: 4.07%.

As for `COc1ccccc1OP(C)(=O)Nc1ccccc1Br` (centres undefined), the inhibition was inactive: -15.5%.

For `CP(=O)(Nc1ccc(Cl)cc1)Oc1ccc(F)cc1` (centres undefined), the inhibition was inactive: 22.1%.

Consider `CCOP(C)(=S)SCC(=O)NC(C)(CC)C(=O)O` (centres undefined), for which the inhibition was inactive: 8.71%.

Regarding `CCOP(=O)(CC)OCC`, the inhibition was inactive: 2.16%.

For the compound `CP(=O)(Nc1ccc(SC(F)(F)F)cc1)Oc1ccc(F)cc1` (centres undefined), the inhibition is inactive: -2.88%.

On to `Cc1ccccc1NP(C)(=O)Nc1ccccc1C`, for which the inhibition was inactive: 8.96%.

With `O=[N+]([O-])c1cc([N+](=O)[O-])c(C(F)(F)F)c([N+](=O)[O-])c1O`, the inhibition was inactive: 8.21%.

In the case of `CP(=O)(Nc1ccc2c(c1)OCCO2)Oc1ccccc1` (centres undefined), the inhibition was inactive: -6.44%.

On to `CN(C)CCOC(=O)C(O)(c1ccccc1)C1CCCCC1` (centres undefined), for which the inhibition is inactive: 10.3%.

In the case of `COc1ccc(NP(C)(=O)Oc2ccccc2OC)cc1` (centres undefined), the inhibition is inactive: 11.9%.

As to `COc1ccc(OP(C)(=O)Nc2cccc(Br)c2)cc1` (centres undefined), the inhibition was inactive: 4.08%.

For `Cc1c(C(c2ccc3c(c2)OCO3)c2c(C)n(C)n(-c3ccccc3)c2=O)c(=O)n(-c2ccccc2)n1C.O=[N+]([O-])c1cc([N+](=O)[O-])c(O)c([N+](=O)[O-])c1`, the inhibition is inactive: 0.72%.

For `O=[N+]([O-])c1ccc(OP2(=O)COCCO2)cc1` (centres undefined), the inhibition is inactive: -1.69%.

For the compound `O=[N+]([O-])c1cc([N+](=O)[O-])c(NCC2CCS(=O)(=O)C2)c([N+](=O)[O-])c1` (centres undefined), the inhibition is inactive: -4.5%.

Turning to `Cc1cc(-c2cccc3ccccc23)c(C)cn1.O=[N+]([O-])c1cc([N+](=O)[O-])c(O)c([N+](=O)[O-])c1`, the inhibition is inactive: -4.42%.

As for `CCOC(=O)c1ccc(NP(C)(=O)Oc2ccc(F)cc2)cc1` (centres undefined), the inhibition is inactive: 11.3%.

On to `COc1ccc(OP(C)(=O)Nc2ccc(SC(F)(F)F)cc2)cc1` (centres undefined), for which the inhibition is inactive: 17.9%.

With `CCN(CC)CCCNc1ccccc1[N+](=O)[O-].O=[N+]([O-])c1cc([N+](=O)[O-])c(O)c([N+](=O)[O-])c1`, the inhibition was inactive: -2.41%.

Take `CP(=O)(Nc1ccccc1)Oc1ccc(F)cc1` (centres undefined): the inhibition was inactive: -11.3%.

Take `O=[N+]([O-])c1cc([N+](=O)[O-])c(OC2CCCCC2O)c([N+](=O)[O-])c1` (centres undefined): the inhibition was inactive: -2.83%.

In the case of `CCCCCOc1ccc(NP(C)(=O)Oc2ccc(Cl)cc2Cl)cc1` (centres undefined), the inhibition is inactive: 16.9%.

For the compound `Cc1c([N+](=O)[O-])cc([N+](=O)[O-])c(Br)c1[N+](=O)[O-]`, the inhibition is inactive: 0.3%.

Consider `CCN(CC)CCCOC(=O)C(O)(c1ccccc1)C1CCCCC1` (centres undefined), for which the inhibition is inactive: -1.68%.

In the case of `CP(=O)(Nc1ccccc1F)Oc1ccccc1` (centres undefined), the inhibition was inactive: 6.22%.

For `CC(C)c1ccc(OP(C)(=O)Nc2ccc(SC(F)(F)F)cc2)cc1` (centres undefined), the inhibition was inactive: 0.69%.

For `O=[N+]([O-])c1cc([N+](=O)[O-])c(Nc2ccc(Cl)cc2)c([N+](=O)[O-])c1`, the inhibition was inactive: -0.9%.

For the compound `COc1ccc2c(c1O)-c1c(O)c(OC)cc3c1[C@H](C2)[N+](C)(C)CC3.O=[N+]([O-])c1cc([N+](=O)[O-])c([O-])c([N+](=O)[O-])c1[O-]`, the inhibition is inactive: 11.4%.

For the compound `O=C(OC1CN2CCC1CC2)c1ccc([N+](=O)[O-])cc1` (centres undefined), the inhibition was inactive: 9.62%.

Turning to `O=C(OCCN1CCN(CCOCc2ccccc2)CC1)C(O)(c1ccccc1)c1ccccc1`, the inhibition was inactive: -6.12%.
